Consider one sequence from ChEMBL document CHEMBL1148008, “Antimicrobial and cytotoxic activity of agelasine and agelasimine analogs” (Bioorg Med Chem, 2007).

The assay concerns Escherichia coli. Description: Antibacterial activity against Escherichia coli ATCC 25922 after 20 hrs by broth microdilution method. It counts as functional. In short, it runs like this:
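Strains grown 24 h at 35 °C on tryptone-soya agar. Colonies suspended in saline to 0.5 McFarland, then diluted 1:10 in Mueller-Hinton broth (~10⁷ CFU/mL). Inoculum added to twofold dilutions in broth (final 0.125–32 µg/mL) in triplicate. Incubated aerobically at 35 °C for 20 h. MIC is the lowest concentration giving complete growth inhibition. Repeated at least once; gentamycin/streptomycin served as QC.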
In general terms: Dilution methods test growth across graded concentrations, often in twofold steps.

With GENTAMICIN, the MIC (as a rule, the lowest concentration that inhibits growth of the organism) was determined as 0.5 µg/mL.
